The record followed here is PubChem BioAssay AID1224865 (Sanford-Burnham Center for Chemical Genomics, 2016).

By UniProt entry, the sequences of proteins in these tests, tags left out.
UniProt P41235, whole entry: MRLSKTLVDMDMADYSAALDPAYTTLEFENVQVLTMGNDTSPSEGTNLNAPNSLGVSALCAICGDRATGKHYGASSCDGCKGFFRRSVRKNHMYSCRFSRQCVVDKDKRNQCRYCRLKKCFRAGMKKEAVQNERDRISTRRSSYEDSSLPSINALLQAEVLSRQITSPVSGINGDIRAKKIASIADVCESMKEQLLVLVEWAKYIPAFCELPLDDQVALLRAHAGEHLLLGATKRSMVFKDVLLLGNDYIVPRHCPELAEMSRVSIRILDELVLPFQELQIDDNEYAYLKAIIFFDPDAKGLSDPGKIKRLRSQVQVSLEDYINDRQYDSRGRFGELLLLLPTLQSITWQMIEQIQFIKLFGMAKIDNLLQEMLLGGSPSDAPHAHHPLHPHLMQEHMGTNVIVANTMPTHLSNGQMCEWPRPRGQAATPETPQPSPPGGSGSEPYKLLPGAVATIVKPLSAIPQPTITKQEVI

Molecules are shown by their SMILES. The entries are a selection whose mix differs from that of the whole data set. The source made the active and inactive calls. Rule as the data show it: active = activity change above about 30% (passing the limit was not always enough); inactive = the rest.

The target of this test is Hepatocyte nuclear factor 4-alpha (Homo sapiens) (UniProt P41235). Put plainly: HNF4-alpha DNA association modulation – biochemical, fluorescence polarization, FITC-DNA, primary screen (AID 1224865). Conditions: HNF4a-FITC DNA binding, 1 h, at 10 µM, stronger effect = higher value.
As to `COc1ccccc1-c1ccccn1.O=[N+]([O-])c1cc([N+](=O)[O-])c(O)c([N+](=O)[O-])c1`, the activity change is inactive: 3.5%. In the case of `COc1ccc(N/C(=N/P(=O)(N2CCOCC2)N2CCOCC2)N2CCOCC2)cc1`, the activity change was inactive: 3.94%. As to `O=[N+]([O-])c1cc(Oc2ccc([N+](=O)[O-])cc2C(F)(F)F)cc([N+](=O)[O-])c1`, the activity change is inactive: -0.36%. As for `COc1cc(I)ccc1[As](=O)(O)O`, the figure is inactive: 0.61%; as for `COc1ccc2nc(NP(=O)(c3ccccc3)c3ccccc3)sc2c1`, inactive: -0.77%.

On to `O=P1(N(CCCl)CCCl)Nc2ccccc2N1`, for which the activity change was inactive: 0.01%. `O=P1(N(CCCl)CCCl)OCCCN1CCCl` (centres undefined): the activity change is inactive: 2.06%. As for `Cc1cc(=O)[nH]c(N[N+](=O)[O-])n1`, the activity change is inactive: -1.35%. On to `CCN(CC)CCCOC(=O)C(O)(c1ccccc1)c1ccccc1`, for which the activity change was inactive: 3.6%. Turning to `O=C(OC1CN2CCC1CC2)C12CC3CC(CC(C3)C1)C2` (centres undefined), the activity change was inactive: -1.84%. For `Cc1c2c(nc3ccccc13)SC(C(Cl)Cl)C2` (centres undefined), the activity change was inactive: 2.1%. Take `Cc1cc(C)cc(OP(C)(N)=O)c1` (centres undefined): the activity change is inactive: 3.19%. Consider `O=[N+]([O-])c1cc([N+](=O)[O-])c(-c2ccn[nH]2)s1`, for which the activity change is inactive: -0.48%.

Turning to `COc1ccc(OP(C)(=O)Nc2cccc(F)c2)cc1` (centres undefined), the activity change was inactive: 0.48%. Regarding `CCN(CC)C(=S)SC(NC=O)C(Cl)(Cl)Cl` (centres undefined), the activity change is inactive: -0.78%. Take `O=C(OC1CN2CCC1CC2)c1cccc2[nH]cnc12` (centres undefined): the activity change was inactive: -0.7%.

For the compound `COc1ccccc1OP(C)(=O)Nc1cc(Cl)ccc1C` (centres undefined), the activity change is inactive: -1.47%.

As to `CC(C)NC(=O)NP(=O)(Oc1ccccc1)Oc1ccccc1`, the activity change was inactive: -2.23%. The value for `Cc1ccc(NP(C)(=O)Oc2ccccc2)c(C)c1` (centres undefined) was inactive: 2.36%. For the compound `CC(C)c1ccc(OP(=O)(Nc2ccccn2)Oc2ccccc2F)cc1` (centres undefined), the activity change was inactive: -0.29%. Regarding `COC(=O)C1(C)COP(=O)(N2CCCCCC2)OC1` (centres undefined), the activity change is inactive: -0.45%. The value for `COc1ccccc1OP(C)(=O)Nc1ccc(C)cc1` (centres undefined) was inactive: 0.62%. With `ClCCSc1nnc(-c2cccnc2)o1`, the activity change was inactive: -2.03%. `CCOC(=O)c1ccc(NP(C)(=O)Oc2ccccc2)cc1` (centres undefined): the activity change is inactive: 3.82%. Regarding `Cc1ccc2nc3c(c(C)c2c1)CC(C(Cl)Cl)S3` (centres undefined), the activity change was inactive: 1.52%. With `O=[N+]([O-])c1ccc2c(c1)C=Nc1ccccc1O2`, the activity change is inactive: 4.42%. With `Cc1cccc(C)c1OP(C)(N)=O` (centres undefined), the activity change was inactive: -2.08%. Take `CC(Cc1ccc(O)cc1)NCC(O)c1cc(O)cc(O)c1` (centres undefined): the activity change was inactive: 0.01%. Regarding `CC(C)(C)c1ccc(OP(C)(=O)Nc2ccc(SC(F)(F)F)cc2)cc1` (centres undefined), the activity change is inactive: 2.02%. As to `[N-]=[N+]=NC1CCCCC1NC(=O)c1cc([N+](=O)[O-])cc([N+](=O)[O-])c1` (centres undefined), the activity change was inactive: -7.18%.

Consider `Cc1ccc(OP(=O)(Nc2ccc([N+](=O)[O-])cn2)Oc2ccc(C)cc2)cc1`, for which the activity change was inactive: 3.09%. As for `COc1cc(C(=O)NCC2(N3CCOCC3)CCCCC2)ccc1OCC(C)C`, the activity change is inactive: -0.07%. With `O=[N+]([O-])c1ccc(-c2cc([N+](=O)[O-])c(O)c([N+](=O)[O-])c2)cc1`, the activity change was inactive: -2.84%. As for `O=[As](O)(c1ccc(O)cc1)c1ccccc1O`, the activity change was inactive: -1.66%.

As for `C[As](=O)(O)c1cccc(C(=O)O)c1`, the activity change is inactive: -2.2%.

With `O=[N+]([O-])c1cc([N+](=O)[O-])c(Nc2cccnc2)c([N+](=O)[O-])c1`, the activity change was inactive: 1.25%. Turning to `O=[N+]([O-])c1ccc(Nc2ccc(Oc3ccc([N+](=O)[O-])cc3[N+](=O)[O-])cc2)c([N+](=O)[O-])c1`, the activity change was inactive: -2.65%. The value for `CP(=O)(Nc1ccccc1Br)Oc1ccccc1` (centres undefined) was inactive: 0.01%; that for `COc1ccccc1OP(C)(=O)Nc1ccccc1` (centres undefined) was inactive: 2.49%. As for `O=P(Nc1ccccn1)(c1cccc2ccccc12)c1cccc2ccccc12`, the activity change is inactive: 0.91%. Take `Cc1cc(SC(NC=O)C(Cl)(Cl)Cl)ncn1` (centres undefined): the activity change was inactive: -1.19%. For the compound `CCOC(=O)Nc1cccc([As](=O)(O)O)c1`, the activity change was inactive: 5.83%. Take `CP(=S)(Nn1cnnc1)Oc1ccccc1` (centres undefined): the activity change was inactive: -3.61%. As for `Cc1cc(SC(NC(=O)c2ccccc2)C(Cl)(Cl)Cl)nc(C(C)C)n1` (centres undefined), the figure is inactive: 2.01%. `CCCCOc1ccc(C(=O)NCC2(N3CCCCC3)CCCCC2)cc1OC`: the activity change was inactive: 2.86%. For `COP(=O)(OC)N1CC1c1ccccc1` (centres undefined), the activity change is inactive: 4.06%. For the compound `CC1CCNP(=O)(N(CCCl)CCCl)O1` (centres undefined), the activity change was inactive: -4.16%. Consider `CCOC(=O)Nc1ccc([As](=O)(O)O)c(O)c1`, for which the activity change was inactive: 2.75%.

As to `O=C(O)C(=O)c1ccc(N(CCCl)CCCl)cc1.c1ccc(Nc2ccccc2)cc1`, the activity change is inactive: -2.6%. Consider `CP(=O)(Nc1ccccn1)Oc1ccc(Cl)cc1` (centres undefined), for which the activity change is inactive: 4.12%.

For the compound `CCC(C)N(CC(C)C)C(=S)SC(NC(C)=O)C(Cl)(Cl)Cl` (centres undefined), the activity change was inactive: 3.36%.

As for `CCOC(=O)c1ccc(NP(C)(=O)Oc2ccc(OC)cc2)cc1` (centres undefined), the activity change was inactive: -2.02%. The value for `CCOC(=O)c1ccc(NC(=O)C(C)(CCl)SC)cc1` (centres undefined) was inactive: -3.92%. For `O=[N+]([O-])c1cc([N+](=O)[O-])c(O)c([N+](=O)[O-])c1.c1ccc(Oc2ccncc2)cc1`, the activity change was inactive: -3.33%.

`CSc1ccc(Nc2c([N+](=O)[O-])cc([N+](=O)[O-])cc2[N+](=O)[O-])cc1`: the activity change was inactive: -1.06%. In the case of `CCOP(C)(=S)SCC(=O)NC(C)C(=O)O` (centres undefined), the activity change was inactive: 1.39%. For the compound `O=C(OC1CN2CCC1CC2)c1cccc([N+](=O)[O-])c1` (centres undefined), the activity change is inactive: 2.8%. As to `Cc1cc(C)cc(OP(C)(=O)Nc2ccc(SC(F)(F)F)cc2)c1` (centres undefined), the activity change was inactive: 0.74%. On to `O=C(Nc1ccncc1[N+](=O)[O-])c1ccc([N+](=O)[O-])cc1[N+](=O)[O-]`, for which the activity change was inactive: 1.3%.

`CCc1ccc(OP(C)(=O)N2CCN(c3ccc([N+](=O)[O-])cc3)CC2)cc1` (centres undefined): the activity change was inactive: 4.22%.

`O=C(COc1ccccc1)OC1CN2CCC1CC2` (centres undefined): the activity change was inactive: 0.78%.

With `CP(=O)(NC(=O)Nc1ccccc1)Oc1ccccc1` (centres undefined), the activity change is inactive: 0.37%. Turning to `CP(=O)(Oc1ccccc1)OC(c1ccccc1)C(F)(F)F` (centres undefined), the activity change was inactive: -0.34%.

As to `COC(=O)C1(C)COP(=O)(N2CCCC2)OC1` (centres undefined), the activity change was inactive: 4.23%.

Take `Cc1ccc(Nc2c([N+](=O)[O-])cc([N+](=O)[O-])cc2[N+](=O)[O-])cc1`: the activity change was inactive: 0.28%. With `Cc1cccc(C)c1OP(C)(=O)Nc1ccc(SC(F)(F)F)cc1` (centres undefined), the activity change is inactive: -0.54%. As to `CP(=O)(Nc1ccc(SC(F)(F)F)cc1)Oc1ccc(Cl)cc1` (centres undefined), the activity change is inactive: -1.06%. In the case of `COP1(=S)c2c(C)nn(CCC#N)c2N=C(c2ccc(F)cc2)N1C` (centres undefined), the activity change is inactive: -3.37%.

With `CC1(CBr)Cn2c(nc3ccccc3c2=O)S1` (centres undefined), the activity change is inactive: -2.36%. As for `Cc1nc2ccc3ccccc3c2s1.O=[N+]([O-])c1cc([N+](=O)[O-])c(O)c([N+](=O)[O-])c1`, the figure is inactive: -0.87%; as for `CC(C)/C=N\N=C(\N)N[N+](=O)[O-]`, inactive: 0.03%. As to `CN(C(=O)Cc1ccc(Cl)c(Cl)c1)[C@@H]1CCCC[C@H]1N1CCCC1`, the activity change was inactive: -3.81%. For the compound `Cc1ccc(S(=O)(=O)N(CCCN)CCCc2c(C)nc(N)[nH]c2=O)cc1.O=[N+]([O-])c1cc([N+](=O)[O-])c(O)c([N+](=O)[O-])c1`, the activity change is inactive: -3.11%.

Regarding `COc1ccccc1CNC(=O)COC(=O)C(O)(c1ccccc1)c1ccccc1`, the activity change is inactive: 0.18%.

Take `O=[N+]([O-])c1cc([N+](=O)[O-])c(-c2cnn(-c3ccccc3)c2)c([N+](=O)[O-])c1`: the activity change is inactive: 0.42%.

On to `CC(C)(C)C(=O)NC(Sc1ncccn1)C(Cl)(Cl)Cl` (centres undefined), for which the activity change was inactive: 10.6%.

Consider `CN(Cc1cccnc1)C(=O)COc1ccc(Cl)c(Cl)c1.O=[N+]([O-])c1cc([N+](=O)[O-])c(O)c([N+](=O)[O-])c1`, for which the activity change is inactive: 1.6%.

Take `O=P1(N(CCCl)CCCl)NCCC(C(F)(F)F)O1` (centres undefined): the activity change is inactive: -0.55%.

For `Clc1n[nH]nc1-c1nn[nH][15n]1`, the activity change was inactive: 0.31%. Turning to `CN(CCCl)Cc1cc(Cl)c(NC2=NCCN2)c(Cl)c1`, the activity change is inactive: 2.63%. As for `CCOP(=O)(Nc1ccc(C)cn1)OCC`, the figure is inactive: -1.55%; as for `CCOP(=O)(NC(=NC(C)c1ccccc1)NC(C)c1ccccc1)OCC` (centres undefined), inactive: -1.47%; as for `Nc1ccc(CCCCOc2ccccc2)cc1.O=[N+]([O-])c1cc([N+](=O)[O-])c(O)c([N+](=O)[O-])c1`, inactive: 1.88%. As to `O=[N+]([O-])c1cc([N+](=O)[O-])c(-n2nnc3ccccc32)c([N+](=O)[O-])c1`, the activity change is inactive: 0.97%.

Turning to `O=C(O)C(O)c1ccc(N(CCCl)CCCl)cc1.c1ccncc1` (centres undefined), the activity change was inactive: 0.83%. As for `O=P1(Nc2ccccn2)COc2ccccc2OC1`, the activity change is inactive: -0.88%.

Regarding `CCC1=CC2Cc3nc4ccc(Cl)cc4c(N)c3C(C1)C2` (centres undefined), the activity change is inactive: 2.44%. With `COc1ccc(-c2ccccn2)cc1.O=[N+]([O-])c1cc([N+](=O)[O-])c(O)c([N+](=O)[O-])c1`, the activity change was inactive: 2.3%. The value for `O=P1(Nc2ccc(Br)cn2)COc2ccccc2OC1` was inactive: 0.35%. For the compound `NS(=O)(=O)c1cccc(NC(=O)COC(=O)C(O)(c2ccccc2)c2ccccc2)c1`, the activity change is inactive: -4.06%.

Regarding `Cc1ccc(OCC(=O)OC2CN3CCC2CC3)cc1` (centres undefined), the activity change is inactive: -0.58%. In the case of `O=[As](O)(c1cccs1)c1cccs1`, the activity change was inactive: -0.83%.

For the compound `Nc1cccc([As](=O)(O)c2ccccc2)c1`, the activity change is inactive: -0.63%. Turning to `CP(=O)(Nc1ccc(SC(F)(F)F)cc1)Oc1ccccc1` (centres undefined), the activity change was inactive: 0.76%.
